Measurements taken from patent US7601850B2, “Phenyl-thiophene type vitamin D receptor modulators” (Eli Lilly and Company, priority 2002, dated 2009).

Chains of the proteins cited; added tags and fusions are not shown. Residues count along the entry.
UniProt P11473, 127-423 limits assumed: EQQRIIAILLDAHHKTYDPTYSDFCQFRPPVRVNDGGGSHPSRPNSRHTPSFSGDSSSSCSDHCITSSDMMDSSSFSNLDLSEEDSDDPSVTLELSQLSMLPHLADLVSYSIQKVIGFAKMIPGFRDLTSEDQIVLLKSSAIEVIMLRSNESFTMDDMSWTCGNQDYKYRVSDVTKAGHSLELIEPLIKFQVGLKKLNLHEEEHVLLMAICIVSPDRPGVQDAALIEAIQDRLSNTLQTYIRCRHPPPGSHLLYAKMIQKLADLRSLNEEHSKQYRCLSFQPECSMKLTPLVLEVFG

Columns and labels:
VDR = VDR (Homo sapiens, UniProt P11473); test: VDR CTF (Caco-2 cell co-transfection assay); format: cell-based; conditions: read-out: VDR CTF (Caco-2 cells) EC50
RXR-VDR heterodimer = RXR-VDR heterodimer (Homo sapiens, UniProt P11473); test: RXR-VDR heterodimerization assay (SaOS-2 cells); format: cell-based; conditions: read-out: RXR-VDR (SaOS-2 cells) EC50

## CCC(CC)(c1ccc(OCC(=O)Nc2nnn[nH]2)c(C)c1)c1cc(C)c(CCC(O)C(C)(C)C)s1 (single isomer, unassigned)
VDR
  EC50: 1230 nM
RXR-VDR heterodimer
  EC50: 736 nM
